The list is not random: actives were taken first. Their share in the collection is about 2.2%.
SIRT5 block: sirtuin-5 (human) deacylase inhibition; Q9NXA8; Purified SirT5, succinyl-peptide AMC, trypsin-coupled fluorescence; inhibition, % at 15 µM; actives 1.1% (n = 330,000); AID 652115; in the data active = inhibition above about 15%; inconclusive = no clear call, values can overlap the other calls
ERp5 inh: ERp5 (human) disulfide isomerase inhibition | Q15084 | ERp5 insulin aggregation, absorbance 650 nm, 90 min | inhibition, % at 9.99 µM | actives 0.05% (n = 350,000) | AID 651711;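 active = mean replicate inhibition above about 25%, with every replicate also reaching it, limit read from the data, passing the limit was not always enough; inconclusive = only one of those two criteria met; inactive = neither criterion met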
UUG fidelity: modulators of start codon recognition fidelity in yeast; S. cerevisiae UUG-firefly luciferase reporter, luminescence/redox ratio; activity score, % at 18.7 µM; hit rate 0.13% among 350,000; AID 602363;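 active = replicate mean at a twofold rise or more, about +100% in these data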;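 note: firefly luciferase made from a UUG start codon reports start codon fidelity; reporter light over untreated wells divided by growth signal over untreated wells; some hits fall short of that in this replicate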
PDI inh: blocks human protein disulfide isomerase activity; P07237; PDI insulin aggregation turbidity, A650, 90 min; inhibition, % at 10 µM; actives 0.052% (n = 350,000);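 active = mean inhibition across replicates of 30% or more, whatever share of single replicates reach that level; inconclusive = mean inhibition below 30% while every single replicate reaches 30%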
FGF22 binding: FGF22 (human) thermal shift binding | activity (Tm shift, normalised), % at 9.99 µM | recombinant FGF22 thermal shift, SYPRO orange fluorescence; percent of sucrose octasulfate shift, DMSO zero | actives 1.5% (n = 340,000);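 active = mean Tm shift, scaled 0 neutral to 100 positive control, at about 1.3% or above, every replicate too, limit read from the data; inconclusive = no clear call, values can overlap the other calls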
S100A4 inh HTS: blocks human S100A4 binding to myosin IIA peptide; actives 0.14% (n = 360,000); inhibition, % at 10.7 µM; S100A4/TAMRA-MyoIIA peptide fluorescence polarization; P26447;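 active = mean inhibition of at least 70% across replicates, with every replicate also reaching that level; inconclusive = mean inhibition reaches 70% but some replicates fall short; inactive = mean inhibition below 70%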
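Compound dosing: one dose per compound; test system: human S100A4 monomer with TAMRA-labelled myosin IIA peptide; probe or stimulus: TAMRA-labelled myosin IIA heavy-chain peptide probe, 5 nM; medium: HEPES buffer with Ca2+, pH 7.2; schedule: 5 min incubation before reading; benchmarks: neutral control DMSO, positive control TFP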
Starred values were filed as active, the others as inactive; u = inconclusive; x = no result given; ! = a repeat was not active.

Results follow in this order: SIRT5 block	ERp5 inh	UUG fidelity	PDI inh	FGF22 binding	S100A4 inh HTS
> O=C(CCN1C(=O)/C(=C/c2cccs2)SC1=S)Nc1ccc(O)cc1
→ -1	-6	-19	11	0	5
> O=C(CCCN1C(=O)/C(=C/c2ccc3c(c2)OCO3)SC1=S)Nc1cccc(C(=O)O)c1
→ 3	-10	-24	17	x	2
> O=C(O)CCN1C(=O)/C(=C\c2cccc(OCC(=O)Nc3ccc(Cl)cc3)c2)SC1=S
→ 2	3	-5	-10	0	2
> O=C(CCN1C(=O)/C(=C/c2ccc3c(c2)OCO3)SC1=S)Nc1cccc(C(=O)O)c1
→ 17*	2	-13	-7	0	5
> O=C(CCCN1C(=O)c2ccccc2C1=O)NCCCN1CCOCC1
→ x	x	-11	-2	x	x
> O=C(CCN1C(=O)/C(=C/c2cccs2)SC1=S)Nc1ccc(C(=O)O)c(O)c1
→ 16*	-8	0	-2	1	0
> O=C(CCN1C(=O)/C(=C\c2ccccc2)SC1=S)NCCCN1CCOCC1
→ 4	26*	-3	4	0	-6
> COc1ccccc1CNC(=O)C[C@H]1CC[C@@H]2[C@H](COC[C@@H](O)CN2Cc2ccc3c(c2)OCO3)O1
→ 1	7	x	x	0	-3
> O=C(CN1C(=O)/C(=C/c2cccc(Br)c2)SC1=S)Nc1cccnc1
→ 1	-7	1	-20	44*	-10
> CC(=Cc1ccccc1)C=C1SC(=S)N(CCCC(=O)Nc2ccc(C(=O)O)c(O)c2)C1=O
→ 60*	-2	-25	7	2.6*	-4
> CC(/C=C1\SC(=S)N(c2ccc(C(=O)O)cc2)C1=O)=C\c1ccccc1
→ 34*	u	x	1	0	0
> CC(/C=C1\SC(=S)N(NC(=O)c2ccc(C)cc2)C1=O)=C\c1ccccc1
→ x	x	-16	-3	x	x
> O=C(CCN1C(=O)/C(=C/c2cccc(Br)c2)SC1=S)Nc1cccnc1
→ -2	-3	x	-19	1	-2
> CCCN1[C@H](C(=O)N[C@@H](C)c2ccccc2)[C@@H](CO)[C@@H]2Cn3c(ccc(-c4ccccc4)c3=O)[C@@H]21
→ -5	0	18	x	0	-11
> O=C(C[C@H]1CC[C@H](NS(=O)(=O)c2ccc(F)cc2)[C@H](CO)O1)N1CCC(Cc2ccccc2)CC1
→ 2	-1	-21	x	0	9

Looked up by structure from the entries so far (4):
Results follow in this order: SIRT5 block	ERp5 inh	UUG fidelity	PDI inh	FGF22 binding	S100A4 inh HTS
> O=C(CCN1C(=O)/C(=C/c2ccc3c(c2)OCO3)SC1=S)Nc1cccc(C(=O)O)c1
→ 17*	2	-13	-7	0	5
> O=C(CCN1C(=O)/C(=C/c2cccc(Br)c2)SC1=S)Nc1cccnc1
→ -2	-3	x	-19	1	-2
> O=C(C[C@H]1CC[C@H](NS(=O)(=O)c2ccc(F)cc2)[C@H](CO)O1)N1CCC(Cc2ccccc2)CC1
→ 2	-1	-21	x	0	9
> CC(/C=C1\SC(=S)N(NC(=O)c2ccc(C)cc2)C1=O)=C\c1ccccc1
→ x	x	-16	-3	x	x

(cont.)
Results follow in this order: SIRT5 block	ERp5 inh	UUG fidelity	PDI inh	FGF22 binding	S100A4 inh HTS
> COCCNC(=O)C[C@@H]1C[C@H]2c3cc(N(C)C)ccc3O[C@H]2[C@@H](CO)O1
→ 0	9	-20	x	-1	-12
> O=C(CCCSc1ccccc1)Nc1nc(-c2ccco2)c(-c2ccco2)s1
→ -1	0	-15	7	0	8
> O=C(CCl)Nc1nc(-c2ccco2)c(-c2ccco2)s1
→ 0	8	x	62*	0	2
> OCCC1CN(Cc2cnn(-c3ccccc3Cl)c2)CCN1Cc1ccsc1 (stereo unspecified)
→ -3	3	x	10	49*	6
> OCCC1CN(Cc2ccsc2)CCN1C1CCCC1 (stereo unspecified)
→ 2	-3	-16	2	0	-1
> OCCC1CN(Cc2nc(-c3ccccc3)cs2)CCN1Cc1ccc(F)cc1 (stereo unspecified)
→ 3	2	1	-3	43*	0
> COc1ccc(S(=O)(=O)Nc2cccc3c2O[C@H](CN(C)S(=O)(=O)c2ccc(Cl)cc2)[C@H](C)CN([C@@H](C)CO)C3=O)cc1
→ 2	-8	-6	x	0	-38
> O=c1nc(N/N=C/c2c[nH]c3ccccc23)cn[nH]1
→ 3	-4	x	4	0	2
> O=c1cnnc(N/N=C/c2c[nH]c3ccccc23)[nH]1
→ -1	u	-20	1	43*	0
> CC(C)Cc1ccc(-c2cc3nc(NCCc4ccc(S(N)(=O)=O)cc4)ccn3n2)cc1
→ 20*	-1	-3	5	0	6
> CC(C)NC(=O)NCC[C@@H]1CC[C@H](NC(=O)CN(C)C)[C@H](CO)O1
→ 3	-2	-9	x	0	9
> CCCc1nc(Cl)c(C#N)c2c1CCCC2
→ 112*	0	x	-8	0	2
> CCOc1ccc(S(=O)(=O)NCCC(=O)OCC(=O)NC(=O)c2cccn2C)cc1
→ x	-14	-10	3	44*	-2
> CCC(=O)Nc1ccc2c(c1)OC[C@H](C)N(Cc1cccnc1)C[C@@H](C)[C@H](OC)CN(C)C2=O
→ -5	-1	-12	x	0	-11
> COCC(=O)N1C[C@@H](C)[C@H](OC)CN(C)C(=O)c2ccc(NC(=O)c3cc(C)on3)cc2OC[C@@H]1C
→ 3	-1	-10	x	0	11

Additional results follow:
Results follow in this order: SIRT5 block	ERp5 inh	UUG fidelity	PDI inh	FGF22 binding	S100A4 inh HTS
> CCC(=O)Nc1ccc2c(c1)OC[C@@H](C)N(Cc1ccccc1F)C[C@H](C)[C@@H](OC)CN(C)C2=O
→ 7	1	-9	x	0	-2
> COCC(=O)N1C[C@@H](C)[C@@H](OC)CN(C)C(=O)c2ccc(NC(=O)c3cc(C)on3)cc2OC[C@@H]1C
→ 34*	6	-3	x	0	16
> CCC(=O)Nc1ccc2c(c1)OC[C@H](C)N(Cc1cccnc1)C[C@H](C)[C@H](OC)CN(C)C2=O
→ 10	29*	-13	x	0	3
> CCC(=O)Nc1ccc2c(c1)OC[C@@H](C)N(Cc1ccccc1F)C[C@@H](C)[C@@H](OC)CN(C)C2=O
→ 30*!	3	-3	x	0	-1
> CO[C@H]1CN(C)C(=O)c2cc(NS(=O)(=O)c3cccc(F)c3)ccc2OC[C@H](C)N(Cc2cc(F)ccc2F)C[C@@H]1C
→ 16*	0	-12	x	0	9
> CC(=O)N(C)C[C@@H]1Oc2ncc(C3=CCCC3)cc2C(=O)N([C@@H](C)CO)C[C@@H]1C
→ 6	-1	-1	x	0	-5
> CCC(=O)N1CC2(C1)[C@H](c1ccc(-c3ccc(F)cc3)cc1)[C@@H](CO)N2S(C)(=O)=O
→ -4	1	x	x	0	1
> CC(C)(C)[S@](=O)N1Cc2cc(C(=O)N3CCCCC3)nc(-c3cccc(C4=CCCC4)c3)c2[C@@H]1CCO
→ x	-5	x	x	0	-49
> CO[C@@H]1CN(C)C(=O)c2ccc(NC(=O)c3ccc(F)cc3)cc2OC[C@H](C)N(C(=O)CC2CC2)C[C@H]1C
→ 1	2	x	x	0	117*
> CCC(=O)Nc1ccc2c(c1)OC[C@@H](C)N(Cc1ccccn1)C[C@@H](C)[C@@H](OC)CN(C)C2=O
→ 15*	6	-17	x	0	36
> CO[C@@H]1CN(C)C(=O)c2ccc(NC(C)=O)cc2OC[C@H](C)N(C(=O)Cc2ccccn2)C[C@H]1C
→ 16*	9	x	x	0	3
> CCC(=O)Nc1ccc2c(c1)OC[C@H](C)N(Cc1ccccn1)C[C@@H](C)[C@H](OC)CN(C)C2=O
→ -1	2	-18	x	0	-10
> COc1ccc(/C=N/NC(=O)CNc2ccc(Br)cc2)c(C(=O)O)c1OC
→ 2	-8	-20	-1	44*	-12
